# Like-named read-outs stand apart in the source and are kept apart here.
# Tested on: nAChRs
# Details: read-out: EC50 (±SEM), Total DA release
smiles,measurement,setting,value
c1cncc(C2CC3CCN2CC3)c1 (stereo not drawn),EC50,,9.3 nM
same,EC50,"ST/OT, L9′S line 2",2.2 nM
same,EC50,"ST/OT, L9′S line 5",2.6 nM

# Reference: patent US20090100532A1, “TRANSGENIC MICE EXPRESSING HYPERSENSITIVE NICOTINIC RECEPTORS” (CALIFORNIA INSTITUTE OF TECHNOLOGY, priority 2007, published 2009)
